According to article PMC5750214 (Nature Communications, 2018):
pKd: −log10 of the molar value.

Key:
[1] = target: human angiotensin II type 1 (AT1) receptor (human) (UniProt P30556); assay: radioligand binding; saturation: [125I]-Ang II (0-100 nM) on membrane extracts of HEK293A cells transfected with the human AT1 receptor, in the presence of Hcy (100 μM); 4 °C, 24 h
[2] = target: human angiotensin II type 1 (AT1) receptor (human) (UniProt P30556); assay: radioligand binding; saturation: [125I]-Ang II (0-100 nM) on membrane extracts of HEK293A cells transfected with the human AT1 receptor, without Hcy; 4 °C, 24 h; binding to non-transfected membranes subtracted

Substance: [125I]-Angiotensin II (peptide)
- pKd [1]: 7.84
- pKd [2]: 7.97
